From ChEMBL document CHEMBL2218064, “Structure-activity relationship data for chemical series of antagonists of the P2X7 receptor (Supplementary Bioactivity Data for publication CHEMBL1157114)” come the findings set out here.

Chains of the proteins cited; added tags and fusions are not shown. Lines headed by an entry give the natural chain unless they say otherwise; changes in a name come on top.
UniProt Q99572: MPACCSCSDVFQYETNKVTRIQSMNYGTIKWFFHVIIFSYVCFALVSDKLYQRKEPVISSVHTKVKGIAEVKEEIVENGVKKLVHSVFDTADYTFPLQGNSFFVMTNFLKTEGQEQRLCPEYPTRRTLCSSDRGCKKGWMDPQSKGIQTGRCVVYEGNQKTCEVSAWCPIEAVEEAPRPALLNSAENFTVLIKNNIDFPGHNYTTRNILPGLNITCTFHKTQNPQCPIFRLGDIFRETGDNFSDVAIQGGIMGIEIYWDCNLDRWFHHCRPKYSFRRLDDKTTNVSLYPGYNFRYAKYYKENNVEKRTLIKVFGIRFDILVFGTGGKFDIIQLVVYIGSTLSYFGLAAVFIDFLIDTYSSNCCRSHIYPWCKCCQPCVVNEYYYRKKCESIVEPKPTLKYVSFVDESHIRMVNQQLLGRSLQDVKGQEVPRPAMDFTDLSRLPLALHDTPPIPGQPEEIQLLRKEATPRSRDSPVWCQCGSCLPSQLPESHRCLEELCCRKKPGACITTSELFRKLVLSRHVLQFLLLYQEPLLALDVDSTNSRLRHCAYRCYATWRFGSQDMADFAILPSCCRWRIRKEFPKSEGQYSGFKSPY

The experiment addresses P2X purinoceptor 7 (Homo sapiens, UniProt Q99572). In words: SUPPLEMENTARY: Inhibition of human P2X7 receptor assessed as inhibition of ethidium bromide accumulation. Same assay as CHEMBL1103860.

For `CCN1C(=O)CC[C@@H]1C(=O)NCc1cccc(C(F)(F)F)c1Cl`, the 50% inhibitory concentration (IC50) was 10 nM. Consider `O=C(NCc1ccc(F)cc1Cl)[C@H]1CCC(=O)N1Cc1ccccc1`, for which the IC50 was 79.4 nM.

As for `CCN1C(=O)CC[C@@H]1C(=O)NCc1cccc(Cl)c1Cl`, the IC50 was 79.4 nM.

`CCN1C(=O)CC[C@H]1C(=O)NCc1cccc(Cl)c1`: the IC50 was 1000 nM.

Turning to `CN1CC(C(=O)NCc2cccc(C(F)(F)F)c2Cl)N(C)C1=O` (configuration not stated), the IC50 is 1.58 nM. Consider `CCN1C(=O)CC[C@@H]1C(=O)NCc1ccc(Cl)cc1Cl`, for which the IC50 is 39.8 nM. In the case of `O=C(NCc1ccc(F)cc1Cl)[C@H]1CCC(=O)N1C1CCC1`, the IC50 is 794 nM.
